Laboratory results: patent US20100120063A1, “GPCR Arrestin Assays” (DISCOVERX CORPORATION, priority 2008, published 2010)

Target: OPRM1-PK (opiod receptor mu-1 fused to PK) (E. coli) (UniProt P35372)
Assay: cell-based or functional assay

Substance: arrestin-EA fusion protein (beta arrestin fused at its C terminus to the EA fragment of β-galactosidase) (from UniProt P49407 1-418; P00722 48-1024)
- BOTTOM of the deltorphin dose-response fit, EFC chemiluminescence, U2OS cells with OPRM1-PK and OPRD1: 614
- BOTTOM of the deltorphin dose-response fit, EFC chemiluminescence, U2OS cells with OPRM1-PK only: 722
- TOP of the deltorphin dose-response fit, EFC chemiluminescence, U2OS cells with OPRM1-PK and OPRD1: 5380
- TOP of the deltorphin dose-response fit, EFC chemiluminescence, U2OS cells with OPRM1-PK only: 14400
